The values that follow are results of earlier work, collected in patent publication US20060088591A1, “Tablets from a poorly compressible substance” (priority 2004, published 2006).

The conditions of the data set: under normal conditions.

Consider “Vitamin E succinate polyethylene glycol 1000 [Vitamin E TPGS]”, for which the stability to hydrolysis result was “very stable and does not hydrolyze”.
